Test results taken from BigSolDB 2.1.

Details: in n-octanol

O=C(O)c1ccccc1
Details	solubility (mole fraction)
295.3 K	0.167
297.65 K	0.18
301.85 K	0.203
304.25 K	0.211
305.25 K	0.219
307.75 K	0.227
309.35 K	0.235
312.3 K	0.25
313.95 K	0.266
317.15 K	0.279
320.85 K	0.29
322.15 K	0.3
